Reference: patent publication US10214520B2, “Substituted azaspiro(4.5)decane derivatives” (priority 2014, dated 2019)
pKi: −log10 of the molar value. Like-named read-outs stand apart in the source and are kept apart here.

Protein sequences, listed by entry. Tags and fused reporters are not part of them. Lines headed by an entry give the natural chain unless they say otherwise; changes in a name come on top.
UniProt P41146: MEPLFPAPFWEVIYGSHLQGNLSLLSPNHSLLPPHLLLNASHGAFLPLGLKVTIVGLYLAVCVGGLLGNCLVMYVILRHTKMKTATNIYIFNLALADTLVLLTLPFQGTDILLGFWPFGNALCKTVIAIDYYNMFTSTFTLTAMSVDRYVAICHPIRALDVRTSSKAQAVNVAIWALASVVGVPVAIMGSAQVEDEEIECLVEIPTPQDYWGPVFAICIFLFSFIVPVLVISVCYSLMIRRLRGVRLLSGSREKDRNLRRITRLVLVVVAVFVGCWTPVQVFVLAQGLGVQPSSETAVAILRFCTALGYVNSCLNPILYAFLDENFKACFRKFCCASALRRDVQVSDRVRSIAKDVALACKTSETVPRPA
UniProt P35372, whole entry, looked up: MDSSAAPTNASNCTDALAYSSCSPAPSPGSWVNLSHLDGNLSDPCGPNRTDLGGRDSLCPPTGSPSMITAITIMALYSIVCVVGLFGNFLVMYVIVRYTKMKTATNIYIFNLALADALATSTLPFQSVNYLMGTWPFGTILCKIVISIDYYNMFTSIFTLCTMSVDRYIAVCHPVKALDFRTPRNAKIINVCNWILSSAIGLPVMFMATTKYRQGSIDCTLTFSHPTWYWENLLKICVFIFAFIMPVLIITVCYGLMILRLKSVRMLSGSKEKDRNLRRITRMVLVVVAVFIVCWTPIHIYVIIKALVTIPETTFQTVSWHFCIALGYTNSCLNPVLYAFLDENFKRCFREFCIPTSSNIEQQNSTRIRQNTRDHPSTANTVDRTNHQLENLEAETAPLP

How the values were obtained:
[1] = system: Female Sprague Dawley rats; experiment: Analgesia in the tail flick (focal ray) test in rats, intravenous administration
ORL1 receptor = ORL1 receptor (Homo sapiens, UniProt P41146)
human μ opiate receptor = human μ opiate receptor (Homo sapiens, UniProt P35372); experiment: μ opiate receptor binding assay with [3H]-naloxone, membrane preparation of CHO-K1 cells (WGA-SPA beads)
[2] = read-out: Ki (ORL1) mean [μm], mean
[3] = read-out: Ki (μ) mean [μm], mean

Row | Structure (SMILES) | Tail flick rat, i.v. % MPE (@μg/kg) ([1]; @100 μg/kg) [%@100 % MPE] | pKi (ORL1 receptor; [2]) | % inhibition (ORL1) [1 μM] (ORL1 receptor; test concentration 1 μM) [%] | pKi (human μ opiate receptor; [3]) | % inhibition (μ) [1 μM] (human μ opiate receptor; test concentration 1 μM) [%] | also measured
1 | CN(C)C1(c2ccccc2)CCC2(CCN(Cc3ccccc3)C2)CC1 (stereo not shown) | 0 | 8.89 | 91 | 8.61 | 99.5 | 
2 | CN(C)C1(c2cccs2)CCC2(CCN(Cc3ccncc3)C2)CC1 (stereo not shown) |  | 7.54 | 78 | 8.17 | 98 | Tail flick rat, i.v. % MPE (@μg/kg) ([1]; @1000 μg/kg): 15%@1000 % MPE
3 | CN(C)C1(c2ccccc2)CCC2(CCN(Cc3ccccn3)C2)CC1 (stereo not shown) | 0 | 8.10 | 86.5 | 7.99 | 94 | 
4 | CN(C)C1(c2cccs2)CCC2(CCN(Cc3cncnc3)C2)CC1 (stereo not shown) |  | 7.76 | 84.5 | 7.94 | 96 | Tail flick rat, i.v. % MPE (@μg/kg) ([1]; @1000 μg/kg): 23%@1000 % MPE
5 | CN(C)C1(c2cccs2)CCC2(CCN(Cc3cccnc3)C2)CC1 (stereo not shown) |  | 7.90 | 90 | 7.92 | 97 | Tail flick rat, i.v. ED50rat [μg/kg] [1]: 1250 µg/kg; SNL rat, i.v. % MPE (@μg/kg) (Male Sprague Dawley rats; @1000 μg/kg): 59.5%@1000 % MPE
6 | CCNC(=O)N1CCC2(CCC(c3cccs3)(N(C)C)CC2)C1 (stereo not shown) | 30 | 7.36 | 68.5 | 8.41 | 99 | 
7 | CN(C)C1(c2ccc(Cl)s2)CCC2(CCN(Cc3ccccc3)C2)CC1 (stereo not shown) | 0 | 8.31 | 94.5 | 8.89 | 100 | 
8 | CN(C)C1(c2cccs2)CCC2(CCN(C(=O)c3ccccc3)C2)CC1 (stereo not shown) |  | 7.68 | 84.5 | 7.70 | 95 | Tail flick rat, i.v. ED50rat [μg/kg] [1]: 77 µg/kg; SNL rat, i.v. % MPE (@μg/kg) (Male Sprague Dawley rats; @68.1 μg/kg): 16%@68.1 % MPE
9 | Cc1ccc(C2(N(C)C)CCC3(CCN(Cc4cccnc4)C3)CC2)s1 (stereo not shown) |  | 7.93 | 84 | 7.89 | 95.5 | Tail flick rat, i.v. ED50rat [μg/kg] [1]: 638 µg/kg; SNL rat, i.v. % MPE (@μg/kg) (Male Sprague Dawley rats; @464 μg/kg): 36%@464 % MPE
10 | Cc1ccc(C2(N(C)C)CCC3(CCN(Cc4ccncc4)C3)CC2)s1 (stereo not shown) |  | 7.40 | 74 | 7.55 | 90 | Tail flick rat, i.v. % MPE (@μg/kg) ([1]; @1000 μg/kg): 0%@1000 % MPE
11 | CN(C)C1(c2ccc(F)s2)CCC2(CCN(C(=O)c3ccccc3)C2)CC1 (stereo not shown) |  | 7.59 | 86 | 7.24 | 90.5 | Tail flick rat, i.v. ED50rat [μg/kg] [1]: 165 µg/kg
12 | Cc1ccc(C2(N(C)C)CCC3(CCN(Cc4ccccc4)C3)CC2)s1 (stereo not shown) | 0 | 8.52 | 98.5 | 8.74 | 99.5 | 
13 | CN(C)C(=O)CN(C)C(=O)CN1C[C@]2(CC[C@@](c3ccccc3)(N(C)C)CC2)CC1=O |  |  |  |  |  | pKi (ORL1 receptor; read-out: ORL1 Ki): 6.49; ORL1 % Inhibition @ 1 μM (ORL1 receptor; test concentration 1 μM): 50%; pKi (human μ opiate receptor; read-out: MOP Ki): 6.93; MOP % Inhibition @1 μM (human μ opiate receptor; test concentration 1 μM): 87%
14 | CN1CCC(CC(=O)N2CCC3(CCC(c4ccccc4)(N(C)C)CC3)C2)CC1 (single isomer, unassigned) |  | 6.73 |  | 6.98 | 79 | 
15 | CN(C)[C@]1(c2ccccc2)CC[C@]2(CC1)CC(=O)N(c1ccc(Cl)cc1C#N)C2 |  |  |  |  |  | pKi (ORL1 receptor; read-out: ORL1 Ki): 8.72; pKi (human μ opiate receptor; read-out: MOP Ki): 8.89
16 | CN(C)C1(c2cccs2)CCC2(CCN(Cc3ccncc3F)C2)CC1 (stereo not shown) |  | 7.82 | 82 | 8.54 | 98 | 
